2 substances from article PMC6151599, “Intestinal Absorption of Triterpenoids and Flavonoids from Glycyrrhizae radix et rhizoma in the Human Caco-2 Monolayer Cell Model” (Molecules : A Journal of Synthetic Chemistry and Natural …, 2017) can be followed below.

The series has as its system Caco-2 cell monolayer. The series can be described thus: Bidirectional transport (Papp) across Caco-2 cell monolayer. It counts as in vitro ADME, human. Conditions: for Detection of compound in the receiving side: after incubation for 90 min, AP→BL and BL→AP; for Absorption designation: from Caco-2 Papp compared with propranolol and atenolol. How it is done: The Caco-2 cell monolayer permeability was carried out according to the previously reported method. Briefly, the Caco-2 cells were maintained in DMEM containing 10% FBS, 1% NEAA, 100 units/mL of penicillin, and 100 µg/mL of streptomycin, in a constant humidity atmosphere of 5% CO2 and 95% air at 37 °C. For confluence and differentiation, cells were seeded at a density of 1 × 10^5 cells/cm^2 into 12-well Transwell plates (insert diameter 12 mm, pore size 3.0 μm, membrane growth area 1.12 cm^2, Costar® #3402) and were allowed to grow for 21 days before the permeation experiment. On day 21, the monolayers with TEER values > 500 Ω·cm^2 were qualified for the transport experiment. The transport study was initiated by the careful removal of the culture medium from AP and BL sides of the inserts. Caco-2 monolayers were rinsed twice with pre-warmed HBSS and were incubated by pre-warmed HBSS for 30 min at 37 °C. Stock solutions of assayed compounds 1–10 were prepared in DMSO and diluted to 50 µM with HBSS. […] The assayed solutions (50 µM) were added to the AP side (0.5 mL, for absorption transport) or BL side (1.5 mL, for efflux transport) of the inserts, while the receiving chamber contained the corresponding volume of HBSS. Incubation was performed at 37 °C for 90 min, with shaking at 50 rpm. Samples were collected from the inserts and lyophilized. The dried sample was then sonicated with the appropriate volume of MeOH, followed by centrifugation at 15,000× g for 10 min. The supernatant was filtered through a 0.45 μm filter and injected into HPLC system for quantitative analysis.
The AP to BL or BL to AP permeability coefficient (Papp) value of each compound was calculated based on the following equation:Papp = (dQ/dt) × (1/A) × (1/C0) (cm/s)(1) where dQ/dt is the rate of the appearance of the test compound on the receiver compartment (μmol/s), C0 is the initial test compound concentration on the donor compartment (μmol/mL), and A is the surface area of Caco-2 monolayer (cm^2).
While shaking the samples (37 °C, 50 rpm), 1.3 mL aliquots were taken from BL side or 0.45 mL aliquots were taken from AP side at 30 min intervals from […].
After shaking the samples (37 °C, 50 rpm) in a shaking water bath for 90 min, aliquots were collected as described above.
On the technique in general: Caco-2 cells form a polarised layer with tight junctions and transporters.

Entries after “also recorded” stand apart in the source; their conditions may differ.

Take isoliquiritin apioside [Compound 8]: the “Detection of compound in the receiving side” value is recorded as “below the lower limit of detection; also recorded: not detected” and the Absorption designation result was “poorly absorbed; also recorded: very poorly absorbed”.
Regarding liquiritin apioside [Compound 10], the “Detection of compound in the receiving side” value is listed as “below the lower limit of detection; also recorded: not detected” and the Absorption designation result is “poorly absorbed; also recorded: hardly permeate; also recorded: very poorly absorbed”. Where the note is “Caco-2 monolayer, both directions”, the “Papp values (bidirectional)” value is less than 1 nm/s.
